The values that follow come from PubChem BioAssay AID688 (PCMD, 2007).

Only a part is listed here, and it is no random draw. Calls of active or inactive are those of the source.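 How the source made its calls: active means mutant luminescence inhibited past about 50% while wild type luminescence and mutant growth stay under set limits (limit read from the data); inconclusive means mutant versus wild type luminescence inhibition gap past a set limit; inactive means the rest.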

In general, inhibition refers to the drop in the measured response relative to a control, in per cent.

The nature of this test: GCN4-lacZ reporter reduction in eIF2B-epsilon mutant yeast, primary screen, S. cerevisiae, eIF2B-epsilon R284H, Beta-Glo luminescence (AID 688). The settings on record: hits give high values, screened at 25 µM (by protocol).
Take `N#CC1(Nc2ccccc2)CCN(CCc2ccccc2)CC1`: the inhibition was inactive: -39%.

On to `N/C(=N\O)c1c(N)no[n+]1[O-]`, for which the inhibition was inactive: 22.5%. For `c1ccc(CN2CCC(Nc3ccccc3)CC2)cc1`, the inhibition is inactive: 10.9%. With `CCC(CO)(C(=O)OC1CN2CCC1CC2)c1ccccc1` (centres undefined), the inhibition is inactive: 13.1%.
